{"source": "patent US7855233B2", "about": "(Teva Pharmaceutical Industries, Ltd., priority 2009, dated 2010)", "key": {"[1]": {"conditions": "Table 8c, from references; cited from earlier work"}, "[2]": {"experiment": "Aqueous / water solubility"}}}
{"substance": "Rasagiline Tartrate", "values": [{"measurement": "Hygroscopicity by KF", "setting": "[1]", "result": "Not hygroscopic"}]}
{"substance": "rasagiline citrate", "values": [{"measurement": "aqueous solubility (in words)", "setting": "[2]", "result": "highest water solubility"}]}
